The text below walks through data of ChEMBL document CHEMBL1159093, “Discovery and optimization of RO-85, a novel drug-like, potent, and selective P2X3 receptor antagonist” (Bioorg Med Chem Lett, 2010).

Assay [1] concerns the target Translocator protein (Rattus norvegicus) (UniProt P16257). Briefly: Displacement of [3H]PK 11195 from BZD receptor in rat heart at 10 uM after 15 mins by scintillation counting. In general terms: Loss of bound radioactivity is the signal in a displacement assay; it reports binding, not function.
For assay [2], the system named is GABA-A receptor (Rattus norvegicus). The assay can be described thus: Displacement of [3H]flunitrazepam from BZD receptor in rat cerebral cortex at 10 uM after 60 mins by scintillation counting.

With `CC(=O)N1CCN(C[C@@H](C)NC(=O)c2cc3c(-c4ccccc4)nn(C)c3s2)CC1`, the Activity in assay [1] and in assay [2] was above 50% each time.
